The text below walks through data of ChEMBL document CHEMBL1137340, “Binding of 13-amidohuprines to acetylcholinesterase: exploring the ligand-induced conformational change of the gly117-gly118 peptide bond in the oxyanion hole” (J Med Chem, 2006).

Each structure is given as a SMILES string.

The target of the experiment is Acetylcholinesterase (Bos taurus, UniProt P23795).

Turning to `CCC1=C[C@@H]2Cc3nc4cc(F)ccc4c(N)c3[C@H](C1)C2`, the IC50 (in general, the concentration at which inhibition is half-maximal) amounted to 6.73 nM.
